Data on 9 compounds can be found in ChEMBL document CHEMBL1125689, “Structure-activity studies on a potent antagonist to organophosphate-induced toxicity” (1991).

SMILES strings stand for the structures. Activity calls are given as the source filed them. The calls are words filed in the database; no cut-off is given here.

For one assay, the system named is Mus musculus. Put plainly: Ability to antagonize paraoxon-induced lethality in mice.(umol/kg required to protect 50% of the mice for 24 hr versus a LD99 dose of paraoxon); inactive.
For the compound `C[N+](C)(CC(=O)c1ccc(-c2ccc(C(=O)C[N+](C)(C)CC3CCOCO3)cc2)cc1)CC1CCOCO1` (centres undefined), the PD50 entry was “inactive”.
Consider `C[N+](C)(CC(=O)c1ccc(-c2ccc(C(=O)C[N+](C)(C)CC3CCCCC3)cc2)cc1)CC1CCCCC1`, for which the PD50 result was “inactive”.

The test system of another assay is Mus musculus. The assay can be described thus: Ability to antagonize paraoxon-induced lethality in mice.(umol/kg required to protect 50% of the mice for 24 hr versus a LD99 dose of paraoxon); IA=Inactive.
Consider `C[N+](C)(CC(=O)c1ccc(-c2ccc(C(=O)C[N+](C)(C)CC3OCCO3)cc2)cc1)CC1OCCO1`, for which the PD50 result was “inactive”.
The same measure, in the same setting: under `C[N+](C)(CC(=O)c1ccc(-c2ccccc2)cc1)CC1OCCCO1` stands “inactive”; under `C[N+](C)(C)CC1OCCCO1`, “inactive”.
On the same count and under the same terms, then `C[N+](C)(CC(=O)c1ccccc1)CC1OCCCO1`, with “inactive”.

Test system in a further assay: not listed separately
Put plainly: The relative potency was evaluated.
For `CN(C)C(=O)Oc1ccc[n+](C)c1`, the Relative potency was determined as 0.21.
On to `C[N+](C)(CC(=O)c1ccc(-c2ccc(C(=O)C[N+](C)(C)CC3OCCCO3)cc2)cc1)CC1OCCCO1`, for which the Relative potency came to 1.
`CNC(=O)Oc1ccc2c(c1)[C@]1(C)CCN(C)[C@@H]1N2C` gave a Relative potency of 0.37.
